The list shows a part of the results, in another mix than the full data. Active and inactive are the calls of the source.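 The calls were made as follows: active = single-dose screening hits from any of four coupled enzyme assays that gave an IC50 when retested across doses; inconclusive = no clear call, values can overlap the other calls; inactive = the rest.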

This assay in a line: inhibitors of PK/LDH coupling enzymes, profiling panel, artefact control, biochemical, MLSMR library (AID 774). Particulars: coupled PK/LDH NADH assays, four targets.
On to `O=P(Nc1nccs1)(c1ccccc1)c1nc2ccccc2s1` (stereo unspecified), for which the IC50 is active: 42.6 µM.

As a reminder, the IC50 is the concentration that gives 50% inhibition.
